Measured values: paper PMC9686514, “Design of Antimicrobial Peptides with Cell-Selective Activity and Membrane-Acting Mechanism against Drug-Resistant Bacteria” (Antibiotics, 2022)

Key:
Assay type in all cases: cell-based
Settings in all cases: 5 × 10^5 cfu/mL, 37 °C, 24 h
[1] = test system: Pseudomonas aeruginosa (ATCC 15692)
Excerpt: (§1) Pseudomonas aeruginosa (ATCC 15692), Escherichia coli (ATCC 25922), and Staphylococcus aureus (ATCC 25923) were purchased from the American Type Culture Collection. Listeria monocytogens (KCTC 3710) and Bacillus subtilis (KCTC 1998) were from the Korean Collection for Type Cultures. Drug-resistant S. aureus (DRSa-001~005) and P. aeruginosa (DRPa-001~005) were collected from Paik Hospital of Inje University in Busan, South Korea. Pre-cultured bacteria grown to mid-log phase were suspended in 10 mM sodium phosphate (SP, pH 7.2) or phosphate-buffered saline (PBS, pH 7.2) with 10% culture media. Bacterial suspensions were added to each peptide dilute (final 5 × 10^5 colony-forming units (cfu)/mL), after which the plates were incubated at 37 °C for 24 h. The turbidity of each well was measured at the absorbance at 600 nm and the morphology of bacterial growth was observed under light microscopy. MICs (Minimum inhibitory concentrations) were defined as the lowest concentration of peptide that expresses the complete inhibition of bacterial growth.

[2] = test system: Escherichia coli (ATCC 25922)
Excerpt: as §1

[3] = test system: Staphylococcus aureus (ATCC 25923)
Excerpt: as §1

[4] = test system: Bacillus subtilis (KCTC 1998)
Excerpt: as §1

[5] = 10 mM sodium phosphate (pH 7.2) with 10% culture media
[6] = phosphate-buffered saline (PBS, pH 7.2) with 10% culture media

CC[C@H](C)[C@H](NC(=O)CN)C(=O)NCC(=O)N[C@@H](C)C(=O)N[C@H](C(=O)N[C@@H](CC(C)C)C(=O)N[C@@H](CCCCN)C(=O)N[C@H](C(=O)N[C@@H](CC(C)C)C(=O)N[C@H](C(=O)N[C@H](C(=O)NCC(=O)N[C@@H](CC(C)C)C(=O)N1CCC[C@H]1C(=O)N[C@@H](C)C(=O)N[C@@H](CC(C)C)C(=O)N[C@H](C(=O)N[C@@H](CO)C(=O)N[C@@H](Cc1c[nH]c2ccccc12)C(=O)N[C@H](C(=O)N[C@@H](CCCCN)C(=O)N[C@@H](CCCNC(=N)N)C(=O)N[C@@H](CCCCN)C(=O)N[C@@H](CCCNC(=N)N)C(=O)N[C@@H](CCC(N)=O)C(=O)N[C@@H](CCC(N)=O)C(N)=O)[C@@H](C)CC)[C@@H](C)CC)[C@@H](C)O)[C@@H](C)O)C(C)C)C(C)C [Melittin, reference compound]
MIC, Pa [1, 5]: 2 µM (≈ 5.69 µg/mL)
MIC, Pa (numbers in parentheses) [1, 6]: 16 µM (≈ 45.5 µg/mL)
MIC, Ec [2, 5]: 2(2) μM
MIC, Ec (numbers in parentheses) [2, 6]: 2(2) μM
MIC, Sa [3, 5]: 2(2) μM
MIC, Sa (numbers in parentheses) [3, 6]: 2(2) μM
MIC, Bs [4, 5]: 2(2) μM
MIC, Bs (numbers in parentheses) [4, 6]: 2(2) μM

≈ marks a conversion by molar mass, not a printed value.
